# Source: PubChem BioAssay AID1347071 (National Center for Advancing Translational Sciences (NCATS), 2019)
# This is a selection; strong and weak results do not stand in their true shares. Activity calls are given as the source filed them. The call rests on the fitted dose curve; in most records, active means well fitted activation curve with a large enough effect; inconclusive means small, poorly fitted or top-dose-only effect; inactive means no such curve, though single readings can be large or run the other way.
# Assay: qHTS for compounds that reverse cellular toxicity of Amyloid beta (A-beta) peptide in yeast: Primary Screen; further: nearly all actives have a fitted effect of over 55% in size
# Settings: yeast expressing A-beta42, growth rescue, OD600, 48 h, 0% DMSO, 100% iron-clioquinol control; at 46.1 µM (top of the series)
# Description: The A-beta peptide is produced by the processing of the amyloid precursor protein (APP) by two proteases, beta and gamma secretases. […] A-beta42 is regarded as the most amyloidogenic form due to its hydrophobicity; however, precisely how A-beta42 induces neurotoxicity is unclear. To understand further this biology and its potential therapeutic implications for human neurodegenerative disease, a quantitative high-throughput screen for compounds that reverse the cellular toxicity of the A-beta peptide was developed. A yeast based screen was used because it recapitulates the salient feature of protein mis-folding disorder accurately. This cell-based phenotypic screen provides a significant, unbiased advantage by letting the compounds and models inform us which proteins or pathways are most relevant. The ideal chemical candidates would therefore have activity in both our primary yeast and secondary neuronal toxicity assays, as well as in mouse models. They will be valuable tools for dissecting diverse protein homeostasis pathologies and could potentially become the focus for future pre-clinical development. For this luminescence assay, inhibition of A-beta rescues the toxic effect in the yeast cell, resulting in increase of signals and the desired phenotype of "Activator". This screen is run against the Molecular Libraries Small Molecule Repository (MLSMR) and the NCGC Sytravon Library Collection.
# NIH Chemical Genomics Center [NCGC]
# NIH Molecular Libraries Probe Centers Network [MLPCN]
# Assay Submitter (PI): Susan Lindquist, Whitehead Institute, Massachusetts Institute of Technology
# [1] Vassar R,et al (1999). Beta-secretase cleavage of Alzheimer's amyloid precursor protein by the transmembrane aspartic protease BACE. Science. 286: 735-741.
# [2] Yan R, et al (1999). Membrane-anchored aspartyl protease with Alzheimer's disease beta-secretase activity. Nature. 402: 533-536.
# Two and a half microliter / well of yeast growth medium were dispensed in a 1536 assay plate. Compounds were pinned using the Kalypsys robotic system followed by addition of 2.5 uL / well yeast solution. The assay plates were incubated at 30 C. After 48 hr, the absorbance signal at 600 nm was obtained using the PerkinElmer ViewLux plate reader to assess yeast growth. The data was normalized to the positive control of an equimolar mixture of ferric chloride (FeCl3) and clioquinol and to the negative control DMSO.
row,Compound,growth rescue
1,CS(=O)(=O)c1ccc(Cl)c(NC(=O)COC(=O)C(O)(c2ccccc2)c2ccccc2)c1,inactive: 3.52%
2,O=[As](O)(O)c1cccnc1,inactive: 2.9%
3,COc1cc(C(=O)NCC2(N3CCOCC3)CCCCC2)cc(Cl)c1OC(C)C,inactive: -2.1%
4,O=C(OC1CN2CCC1CC2)c1ccc(Cl)cc1 (configuration not stated),inactive: 14.3%
5,Cc1cccc(OCC(=O)OC2CN3CCC2CC3)c1 (configuration not stated),inactive: 7.65%
6,O=[As](O)(c1cccc(O)c1)c1cccc(O)c1,inactive: 15.2%
7,CCCOP(=S)(Nc1nc(N)cc(=O)[nH]1)OCCC,inactive: 9.89%
8,Cc1ccc(NCCc2c([N+](=O)[O-])cc([N+](=O)[O-])cc2[N+](=O)[O-])cc1,inactive: -35.2%
9,Nc1cccc2c([As](=O)(O)O)cccc12,inactive: 0.172%
10,CCOP(=O)(Nc1cccc2ccccc12)OCC,inactive: 34.2%
11,COc1cc(C2NCCC3(OCCO3)C2(C)C)cc(OC)c1OC (configuration not stated),inactive: -11%
12,CS(=O)(=O)c1cc([N+](=O)[O-])c2no[n+]([O-])c2c1,inactive: 1.12%
13,O=P(Nc1nccs1)(Oc1ccccc1)Oc1ccccc1,inactive: -1.5%
14,O=P(Nc1nccs1)(c1ccccc1)c1nc2ccccc2s1 (configuration not stated),inactive: -83.5%
15,CCOP1(=S)c2c(C)nn(CCC#N)c2N=C(c2ccccc2F)N1C (configuration not stated),inactive: -13.7%
16,Nc1ccccc1[As](=O)(O)c1ccccc1,inactive: -0.299%
17,O=C(O)COc1ccc([As](=O)(O)O)cc1[N+](=O)[O-],inactive: -32.2%
18,NC(=O)Nc1ccc([As](=O)(O)O)cc1,inactive: 6.84%
19,CN(C(=O)Cc1ccc(Cl)c(Cl)c1)[C@H]1CC[C@@]2(CCCO2)C[C@@H]1N1CCCC1,inactive: -2.37%
20,O=[N+]([O-])c1ccc2c(c1)nnn2O,inactive: 0.712%
21,CN(C)C(=O)c1cc([N+](=O)[O-])cc2c1-c1c(cc([N+](=O)[O-])cc1[N+](=O)[O-])C2=O,inactive: -83.6%
22,CCOP1(=S)c2c(C)nn(CCC#N)c2N=C(c2ccc(F)cc2)N1C (configuration not stated),inactive: -21.9%
23,CN(C(=O)Cc1ccccc1)[C@@H]1CC[C@]2(CCCO2)C[C@H]1N1CCCC1,inactive: 5.96%
24,N#CCCN(C(=O)COC(=O)C(O)(c1ccccc1)c1ccccc1)c1ccc(F)cc1,inactive: 7.42%
25,CC1CCC(C(C)C)C(OP(=O)(Nc2ccccn2)c2ccccc2)C1 (configuration not stated),inactive: 2.93%
26,Cc1ccc(C(=O)OC2CN3CCC2CC3)cc1 (configuration not stated),inactive: 11.1%
27,Cc1nn(-c2ccccc2)c2c1P(=O)(N1CCOCC1)N(C)C(c1ccccc1)=N2 (configuration not stated),inactive: -2.45%
